Values quoted from earlier work as cited in patent publication US20210268122A1, “INHIBITION OF S[…] PROTEIN INHIBITORS OF CYSTEINE PROTEASES” (DYVE BIOSCIENCES, INC., priority 2017, published 2021).

Tested on: cysteine cathepsin
Details: intra-peritoneal; mammary and lungs; cited from earlier work

Substance: JPM-OEt
- bioavailability: poor
